Measurements taken from paper PMC5021948, “Amyloidogenic amyloid-β-peptide variants induce microbial agglutination and exert antimicrobial activity” (Scientific Reports, 2016).

Tests used:
[1] = test system: E. faecalis, E. coli, S. aureus, L. monocytogenes and C. albicans; assay: Flow cytometry of damaged microorganisms (increased autofluorescence / reduced forward scatter); format: cell-based; conditions: 25 or 50 μg/ml, 6 h bacteria, 20 h C. albicans
Experimental: Enterococcus faecalis (ATCC 29212), Listeria monocytogenes (VA 15110/93), Escherichia coli (DH5α) and Staphylococcus aureus (ATCC 25923) were grown aerobically on blood agar plates. Candida albicans (ATCC 10231) was plated on Sabouraud dextrose agar plates. E. coli, S. aureus and C. albicans were cultured at 37 °C; E. faecalis and L. monocytogenes were cultured at 37 °C with an additional 5% CO2. Before the experiments, the organisms were subcultured to generate mid-logarithmic growth cultures for use as inoculates. Colonies from the agar were transferred using a sterile loop to Mueller-Hinton broth (Roth, Karlsruhe, Germany) and incubated for 100 min at 39 °C to achieve a McFarland density of 0.5. The C. albicans and bacterial inocula were normalized in Mueller-Hinton broth to 5 × 10^5 cells/ml immediately before use. […]
After 6 h of incubation for bacteria and 20 h for C. albicans, 50 μl of the cell suspension was diluted in 1% paraformaldehyde (Sigma-Aldrich, Munich, Germany) and stained with DAPI (Sigma-Aldrich, Munich, Germany). Flow cytometry analysis was performed using a Gallios Cytometer (Beckman Coulter, Krefeld, Germany), and the results were evaluated using Kaluza® software (Beckman & Coulter, Krefeld, Germany). […] Viability was assessed based on the increase in autofluorescence and reduction of forward scatter as signs of microbial damage.

[2] = test system: surfaces of E. faecalis and S. aureus; assay: Immunocytochemistry (6E10), Aβ peptide bound to microbial surface; format: binding; conditions: 50 μg/ml, 6 h, 6E10 antibody, mean pixel intensity in donut-shaped masks
Experimental: The immunocytochemistry of E. faecalis and S. aureus was examined using the Gram preparations specified above. To achieve the robust adherence of pathogens on the glass slides during the staining procedure, cells were incubated with 2% paraformaldehyde (Sigma-Aldrich, Munich, Germany) on the slides and air dried for 60 min at room temperature, followed by washing with PBS (Biochrom, Berlin, Germany). […]
All images were visually quality controlled. […] An automated quantitative phenotypic image analysis was performed using a custom-adapted version of the image analysis software DetecTiff. Pericellular Aβ peptide levels were quantified from the AF488 channel within donut-shaped masks (see Fig. 1B), which were generated from the DAPI channel in a three-step procedure. […] The Aβ peptide level in an individual cell was calculated as the arithmetic mean of all pixel values within the area of a donut-shaped mask and reported as the mean pixel intensity. Cell aggregation was quantified in an automated manner from segmented images of DAPI-stained nuclei by counting the number of bacteria adjacent to a selected individual bacterium within a rectangular 50-pixel[2] region.

L. monocytogenes = assay: Gram staining, microbial agglutination; format: cell-based, Listeria monocytogenes; conditions: 50 μg/ml, 6 h
Experimental: (§1) Enterococcus faecalis (ATCC 29212), Listeria monocytogenes (VA 15110/93), Escherichia coli (DH5α) and Staphylococcus aureus (ATCC 25923) were grown aerobically on blood agar plates. Candida albicans (ATCC 10231) was plated on Sabouraud dextrose agar plates. E. coli, S. aureus and C. albicans were cultured at 37 °C; E. faecalis and L. monocytogenes were cultured at 37 °C with an additional 5% CO2. Before the experiments, the organisms were subcultured to generate mid-logarithmic growth cultures for use as inoculates. Colonies from the agar were transferred using a sterile loop to Mueller-Hinton broth (Roth, Karlsruhe, Germany) and incubated for 100 min at 39 °C to achieve a McFarland density of 0.5. The C. albicans and bacterial inocula were normalized in Mueller-Hinton broth to 5 × 10^5 cells/ml immediately before use. For the experiments, an inoculum of 5 × 10^5 cells/ml was dispensed into 96-well plates containing Mueller-Hinton broth growth medium with Aβ peptides, as indicated below.
(§2) The same cultures analysed by flow cytometry were used for the gram staining. After incubating the bacteria and C. albicans with the peptides, 10 μl of the cell suspensions were air-dried on microscope slides and flame-fixated. The smears were flooded with crystal violet solution for 2 min. The slides were rinsed and then incubated for 2 min with iodine solution. […]

C. albicans = assay: Gram staining, microbial agglutination; format: cell-based, Candida albicans; conditions: 50 μg/ml, 20 h
Experimental: as §1, §2

In the case of “Aβ2-42: amyloidogenic, N-terminally truncated amyloid-β peptide variant ending at position 42 (Anaspec)”, the “antimicrobial / microbicidal activity by flow cytometry” value [1] is reported as “very strong microbicidal effect”, the “binding of Aβ peptide to microbial surfaces” value [2] is reported as “bound to microbial surfaces” and the “microbial agglutination in Gram stains” value (L. monocytogenes) is reported as “no agglutinated bacteria were observed”. The “microbial agglutination in Gram stains” value (C. albicans) was “no agglutinated bacteria were observed”.
